The values that follow come from US8106197B2, “Aminoheteroaryl compounds as protein kinase inhibitors” (Pfizer Inc., priority 2003, dated 2012).

The chains behind the UniProt entries cited, without tags or fusion partners. Residues count along the entry.
UniProt P08581, 1078-1345 limits assumed: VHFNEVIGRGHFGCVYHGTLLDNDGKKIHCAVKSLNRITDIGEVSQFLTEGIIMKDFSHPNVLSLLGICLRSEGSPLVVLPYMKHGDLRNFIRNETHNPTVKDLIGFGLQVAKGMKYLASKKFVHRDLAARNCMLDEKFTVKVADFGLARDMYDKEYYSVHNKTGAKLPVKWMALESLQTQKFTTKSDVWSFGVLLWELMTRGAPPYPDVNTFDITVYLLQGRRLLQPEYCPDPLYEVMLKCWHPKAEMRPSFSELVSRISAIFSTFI

Structures are written as SMILES.

In this experiment the target is T1, GST fusion protein containing the Met kinase domain (Homo sapiens, UniProt P08581).
T1 construct: Purified GST fusion protein containing the Met kinase domain, SUGEN, Inc
The experiment is described as follows: MET transphosphorylation assay (ELISA, poly(glu-tyr) substrate). The class given is biochemical. The method, then: MET Transphosphorylation Assay
8. 10% aqueous (MilliQue H2O) DMSO.
11. 4× ATP Reaction Mixture: for 10 mL, mix 0.4 mL 1 M manganese chloride and 0.02 mL 0.1 M ATP in 9.56 mL dH2O.
12. 4× Negative Controls Mixture: for 10 mL, mix 0.4 mL 1 M manganese chloride in 9.6 mL dH2O.
17. Goat anti-rabbit horseradish peroxidase conjugated antibody, Biosource, Inc.
18. ABTS Solution: for 1 L, mix 19.21 g citric acid, 35.49 g Na2HPO4 and 500 mg ABTS with sufficient dH2O to make 1 L.
2. Block plate with 150 μL of 5% BSA/PBS for 60 min.
4. Add 50 μl of the diluted kinase to all wells. (Purified kinase is diluted with Kinase Dilution Buffer. Final concentration should be 10 ng/well.)
5. Add 25 μL of the test compound (in 4% DMSO) or DMSO alone (4% in dH2O) for controls to plate.
6. Incubate the kinase/compound mixture for 15 minutes.
7. Add 25 μL of 40 mM MnCl2 to the negative control wells.
8. Add 25 μL ATP/MnCl2 mixture to the all other wells (except the negative controls). Incubate for 5 min.
9. Add 25 μL 500 mM EDTA to stop reaction.
10. Wash plate 3× with TBST.
11. Add 100 μL rabbit polyclonal anti-Ptyr diluted 1:10,000 in Antibody Dilution Buffer to each well. Incubate, with shaking, at room temperature for one hour.
12. Wash plate 3× with TBST.
13. […] Add 100 μL per well and incubate at room temperature, with shaking, for one hour.
14. Wash plate 1× with PBS.
15. Add 100 μl of ABTS/H2O2 solution to each well.
16. […]
(In general: In an ELISA, binding on a coated surface is turned into a signal by an enzyme label.)

For the compound `Nc1ncc(-c2cccc(C(=O)NCCN3CCOCC3)c2)nc1OCc1cccc(F)c1C(F)(F)F` [II-123, 3-[5-Amino-6-(3-fluoro-2-trifluoromethyl-benzyloxy)-pyrazin-2-yl]-N-{2-[ethyl-(2-methoxy-ethyl)-amino]-ethyl}-benzamide], the IC50 (in general, the concentration needed to halve the response being measured) came out at 450 nM.
